# Assay results as given in PubChem BioAssay AID651725 (National Center for Advancing Translational Sciences (NCATS), 2012).
# The chains behind the UniProt entries cited, without tags or fusion partners.
# UniProt Q15475, whole entry: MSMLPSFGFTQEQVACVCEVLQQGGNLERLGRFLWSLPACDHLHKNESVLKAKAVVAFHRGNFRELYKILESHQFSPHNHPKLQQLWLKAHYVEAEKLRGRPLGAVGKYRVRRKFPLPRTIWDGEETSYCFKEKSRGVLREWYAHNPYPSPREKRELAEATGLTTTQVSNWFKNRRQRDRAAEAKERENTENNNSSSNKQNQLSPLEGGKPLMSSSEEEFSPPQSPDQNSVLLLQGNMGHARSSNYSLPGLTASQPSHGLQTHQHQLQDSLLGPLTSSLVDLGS
# Only a part is listed here, and it is no random draw. Activity calls are given as the source filed them. Rule as the data show it: active = activity change below about -65%; inconclusive = mostly about -30% to -63%; inactive = weaker than that.
# Target: Homeobox protein SIX1 (Homo sapiens) + Protein phosphatase EYA2 (Homo sapiens) (UniProt Q15475+O00167)
# Assay: qHTS Assay for Inhibitors of the Six1/Eya2 Interaction
# Details: AlphaScreen GST-Six1/His-Eya2 binding, biochemical; stronger effect = lower value
# In short: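 GST-Six1 + His-Eya2 (5X stock: 250/500 nM); Tris pH 8.0, 300 mM NaCl, 0.05% BSA, 0.02% Tween 20; GSH donor/Ni acceptor beads; 1 h 37 °C dark; AlphaScreen readout.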
# % is scaled to controls: 0 for no effect and ±100 for the full control effect.
row,SMILES,activity change
1,CC(=O)Nc1ccc([As](=O)(O)O)cc1,inactive: -6.65%
2,O=C(O)c1ccccc1[As](=O)(O)O,inactive: 0.27%
3,O=P(Nc1nc2ccc(Cl)cc2s1)(c1ccccc1)c1ccccc1,inactive: 0.513%
4,Cc1cc(C)cc(OP(C)(=O)Nc2cccc(C(F)(F)F)c2)c1 (stereo unspecified),inactive: -0.751%
5,CN(C)P(=O)(N(C)C)n1c(Nc2ccccc2)nnc1-c1ccccc1,inactive: -0.84%
6,COc1ccccc1OP(C)(=O)Nc1ccc(C)c(C)c1 (stereo unspecified),inactive: 5.11%
7,Cc1ccc(NP(=O)(Oc2ccccc2F)Oc2ccccc2F)nc1,inactive: 1.84%
8,CN(C(=O)Cc1ccc(Cl)c(Cl)c1)[C@H]1CCCC[C@@H]1N1CCCC1,inactive: -3.82%
9,Cc1cc(SC(NC(=O)c2ccc(F)cc2)C(Cl)(Cl)Cl)ncn1 (stereo unspecified),inactive: 13.7%
10,CCOP(=O)(Nc1ccccc1)OCC,inactive: -3.61%
11,COc1ccc(OP(C)(=O)Nc2ccccc2Br)cc1 (stereo unspecified),inactive: 1.53%
12,CCN(N=Nc1nonc1N)c1nonc1N,inactive: 11.4%
13,CP(=O)(Nc1ccc(Cl)cc1Cl)Oc1ccccc1 (stereo unspecified),inactive: 0.81%
14,CCCCCCCCCCCCCCCC1C[N+](C)(C)CCOP(C)(=O)O1 (stereo unspecified),inactive: 11.6%
15,CP(=O)(OCCOc1ccccc1)OCCOc1ccccc1,inactive: 0.203%
16,Nc1cccc2ccc([As](=O)(O)O)cc12,inactive: -4.73%
17,NC(=O)c1cc([N+](=O)[O-])cc([N+](=O)[O-])c1N,inactive: 1.66%
18,Cc1ccc(N/C(=N/P(=O)(N2CCOCC2)N2CCOCC2)N2CCOCC2)cc1,inactive: 32.7%
19,CN(C(=O)Cc1ccc(Cl)c(Cl)c1)[C@H]1CCCC[C@H]1N1CCCC1,inactive: 5.52%
20,COc1ccccc1OP(C)(=O)Nc1ccc(Br)cc1 (stereo unspecified),inactive: -0.477%
21,Cc1ccc(OP(=O)(Nc2nccs2)Oc2ccc(C)cc2)cc1,inactive: 0.972%
22,COc1ccccc1OP(=O)(Nc1ccc(C)cn1)Oc1ccccc1OC,inactive: 5.18%
23,COc1ccc(OP(C)(=O)Nc2ccccn2)cc1 (stereo unspecified),inactive: 14.9%
24,CN1CCCC(OC(=O)C(c2ccccc2)c2ccccc2)C1 (stereo unspecified),inactive: -24.5%
25,Clc1ccc(Cl)c(NC2=NCC(CBr)S2)c1 (stereo unspecified),inactive: 4.71%
26,CN(C)CCOC(=O)C(O)(c1ccccc1)C1CCCC1 (stereo unspecified),inactive: 2.68%

row,SMILES,activity change
1,Cc1c(NP(C)(=O)Oc2ccc(C(C)C)cc2)c(=O)n(-c2ccccc2)n1C (stereo unspecified),inactive: -0.405%
2,Nc1cc(N)c2nonc2c1[N+](=O)[O-],inactive: -22.2%
3,CC(C)CC(=O)NC(Sc1ccc(Cl)cc1)C(Cl)(Cl)Cl (stereo unspecified),inactive: 10.4%
4,O=[N+]([O-])c1cc([N+](=O)[O-])c(Nc2ccccn2)c([N+](=O)[O-])c1,inactive: -11.5%
5,O=C(NC(Sc1ccncn1)C(Cl)(Cl)Cl)c1ccccc1 (stereo unspecified),inactive: 5.91%
6,Oc1ccccc1CNc1ccccn1,inactive: 2.51%
7,COc1ccccc1OP(C)(=O)Nc1ccc(C)cc1C (stereo unspecified),inactive: 5.32%
8,CP(=O)(Nc1ccccn1)Oc1ccccc1 (stereo unspecified),inactive: 8.75%
9,CCc1ccc(OP(C)(=O)O)cc1,inactive: 3.08%
10,O=[N+]([O-])C1C(O)C(O)C([N+](=O)[O-])C(O)C1O (stereo unspecified),inactive: -2.54%
11,COc1ccc(C2=NCC(CBr)S2)cc1 (stereo unspecified),inactive: 1.61%
12,COc1ccc(OP(C)(=O)Nc2ccc(Br)cc2)cc1 (stereo unspecified),inactive: 1.26%
13,CCN(CC)CC(O)COC(=O)C(O)(c1ccccc1)C1CCCCC1 (stereo unspecified),inactive: 2.09%
14,O=C(OCCCN1CCCC1)C(O)(c1ccccc1)C1CCCCC1 (stereo unspecified),inactive: 3.19%
15,O=[N+]([O-])c1cccc2n[nH]nc12,inactive: 8.7%
16,CC(=O)N1C2C3N(C(C)=O)C1C1N(C(C)=O)C(C(N1C(C)=O)N3C(C)=O)N2C(C)=O,inactive: 6.79%
17,COc1ccccc1OP(C)(=O)Nc1c(C)n(C)n(-c2ccccc2)c1=O (stereo unspecified),inactive: 3.86%
18,CCc1ccc(OP(C)(=O)Nc2cccnc2)cc1 (stereo unspecified),inactive: 3.39%
19,CCc1nc2c(n1)c1c(non1O)c1c2no[n+]1[O-],inactive: -13.6%
20,Cc1ccc(NP(=O)(Oc2ccccc2)Oc2ccccc2)nc1,inactive: 3.7%
21,CP(=O)(Oc1ccccc1)N1CCOC1=O (stereo unspecified),inactive: -0.425%
22,COc1ccccc1OP(C)(=O)Nc1ccccc1Br (stereo unspecified),inactive: 10.1%
23,CC(C)(C)c1ccc(OP(C)(=O)O)cc1,inactive: 5.25%
24,Nc1ccc([As](=O)(O)c2ccc(N)cc2)cc1,inactive: 2.29%
25,CP(=O)(Nc1ccc(Cl)cc1)Oc1ccc(F)cc1 (stereo unspecified),inactive: 0%
26,CCN(/C(=N/P(=O)(N1CCOCC1)N1CCOCC1)N1CCOCC1)c1ccc(OC)cc1,inactive: 2.77%

row,SMILES,activity change
1,CN(C)C(=O)OCCc1n(C)cc[n+]1C,inactive: -0.0938%
2,CC(C)c1nc(Nc2ccccc2)n(P(=O)(N(C)C)N(C)C)n1,inactive: -1.16%
3,CN(C)C(=O)c1c([N+](=O)[O-])cc([N+](=O)[O-])cc1[N+](=O)[O-],inactive: -9.67%
4,CC(C)=N/N=C(\N)N[N+](=O)[O-],inactive: 7.1%
5,CC1CCN(C(=O)Oc2c(Cl)cc(Cl)c3cccnc23)CC1,inactive: 6.54%
6,c1cc(-c2nn[nH]n2)ccc1-c1nn[nH]n1,inactive: -10.3%
7,Nc1ccc2c(ccc3cccnc32)n1.O=[N+]([O-])c1cc([N+](=O)[O-])c(O)c([N+](=O)[O-])c1,inactive: -16%
8,O=P1(N(CCCl)CCCl)OCCCS1 (stereo unspecified),inactive: 5.61%
9,O=C(Nc1cc([As](=O)(O)O)ccc1O)c1ccccc1,inactive: 5.7%
10,CCOC(=O)c1ccc(NP(C)(=O)Oc2ccc(Cl)cc2)cc1 (stereo unspecified),inactive: -2.18%
11,CP(=O)(OC12CC3CC(CC(C3)C1)C2)OC12CC3CC(CC(C3)C1)C2,inactive: -0.0441%
12,CC(C)(C)C(=O)NC(Sc1ccncn1)C(Cl)(Cl)Cl (stereo unspecified),inactive: 4.06%
13,O=[N+]([O-])c1ncn(CCn2ncnc2[N+](=O)[O-])n1,inactive: 5.42%
14,COC(=O)C1(C)COP(=O)(Nc2ccccc2)OC1 (stereo unspecified),inactive: 9.28%
15,O=[N+]([O-])c1cccc(NC2=NCC(CBr)S2)c1 (stereo unspecified),inactive: 2.73%
16,O=C(O)CNc1ccc([As](=O)(O)O)cc1,inactive: 5.08%
17,CC1CCNP(=O)(N(CCCl)CCCl)O1 (stereo unspecified),inactive: 8.59%
18,O=C(O)C(=O)c1ccc(N(CCCl)CCCl)cc1.c1ccc(Nc2ccccc2)cc1,inactive: -16.2%
19,CCOC(=O)Nc1ccc([As](=O)(O)O)c(O)c1,inactive: 7.33%
20,Cc1cc(SC(NC(=O)c2ccccc2)C(Cl)(Cl)Cl)nc(C(C)C)n1 (stereo unspecified),inactive: 0.584%
21,CCCCOc1ccc(C(=O)NCC2(N3CCCCC3)CCCCC2)cc1OC,inactive: 4.75%
22,COP(=O)(OC)N1CC1c1ccccc1 (stereo unspecified),inactive: 4.72%
23,CCOC(=O)Nc1cccc([As](=O)(O)O)c1,inactive: 6.23%
24,CP(=S)(Nn1cnnc1)Oc1ccccc1 (stereo unspecified),inactive: 10.2%
25,O=[N+]([O-])c1ccc(Nc2ccc(Oc3ccc([N+](=O)[O-])cc3[N+](=O)[O-])cc2)c([N+](=O)[O-])c1,inactive: 0.623%
26,CP(=O)(Nc1ccccc1Br)Oc1ccccc1 (stereo unspecified),inactive: 2.27%

row,SMILES,activity change
1,COc1ccccc1OP(C)(=O)Nc1ccccc1 (stereo unspecified),inactive: 1.35%
2,O=P(Nc1ccccn1)(c1cccc2ccccc12)c1cccc2ccccc12,inactive: -2.18%
3,Cc1cc(SC(NC=O)C(Cl)(Cl)Cl)ncn1 (stereo unspecified),inactive: -1.78%
4,CP(=O)(Oc1ccccc1)OC(c1ccccc1)C(F)(F)F (stereo unspecified),inactive: 2.72%
5,COC(=O)C1(C)COP(=O)(N2CCCC2)OC1 (stereo unspecified),inactive: 0%
6,COP1(=S)c2c(C)nn(CCC#N)c2N=C(c2ccc(F)cc2)N1C (stereo unspecified),inactive: 1.47%
7,Cc1cccc(C)c1OP(C)(=O)Nc1ccc(SC(F)(F)F)cc1 (stereo unspecified),inactive: 0.483%
8,CP(=O)(Nc1ccc(SC(F)(F)F)cc1)Oc1ccc(Cl)cc1 (stereo unspecified),inactive: -3.05%
9,Cc1cc(C)cc(OP(C)(=O)Nc2ccc(SC(F)(F)F)cc2)c1 (stereo unspecified),inactive: -1.8%
10,O=C(Nc1ccncc1[N+](=O)[O-])c1ccc([N+](=O)[O-])cc1[N+](=O)[O-],inactive: -1.48%
11,O=C(COc1ccccc1)OC1CN2CCC1CC2 (stereo unspecified),inactive: -0.989%
12,CP(=O)(NC(=O)Nc1ccccc1)Oc1ccccc1 (stereo unspecified),inactive: -0.168%
13,CCc1ccc(OP(C)(=O)N2CCN(c3ccc([N+](=O)[O-])cc3)CC2)cc1 (stereo unspecified),inactive: -4.98%
14,CCOC(=O)c1ccc(NP(C)(=O)Oc2ccc(OC)cc2)cc1 (stereo unspecified),inactive: -9.79%
15,CCOC(=O)c1ccc(NC(=O)C(C)(CCl)SC)cc1 (stereo unspecified),inactive: 0.949%
16,O=[N+]([O-])c1cc([N+](=O)[O-])c(O)c([N+](=O)[O-])c1.c1ccc(Oc2ccncc2)cc1,inactive: 4.05%
17,CCOP(C)(=S)SCC(=O)NC(C)C(=O)O (stereo unspecified),inactive: -4.87%
18,O=C(OC1CN2CCC1CC2)c1cccc([N+](=O)[O-])c1 (stereo unspecified),inactive: 1.02%
19,CP(=O)(Nc1ccccn1)Oc1ccc(Cl)cc1 (stereo unspecified),inactive: -1.18%
20,CCC(C)N(CC(C)C)C(=S)SC(NC(C)=O)C(Cl)(Cl)Cl (stereo unspecified),inactive: -11.4%
21,Cc1cc(=O)[nH]c(N[N+](=O)[O-])n1,inactive: 0.148%
22,CCN(CC)CCCOC(=O)C(O)(c1ccccc1)c1ccccc1,inactive: 3.8%
23,O=C(OC1CN2CCC1CC2)C12CC3CC(CC(C3)C1)C2 (stereo unspecified),inactive: -10.9%
